Data reported in ChEMBL document CHEMBL5236596, “Discovery and Optimization of N-Acyl-6-sulfonamide-tetrahydroquinoline Derivatives as Novel Non-Steroidal Selective Glucocorticoid Receptor Modulators” (J Med Chem, 2022).

Target: T1, Mineralocorticoid receptor (Homo sapiens) (UniProt P08235)
T1 sequence (whole entry): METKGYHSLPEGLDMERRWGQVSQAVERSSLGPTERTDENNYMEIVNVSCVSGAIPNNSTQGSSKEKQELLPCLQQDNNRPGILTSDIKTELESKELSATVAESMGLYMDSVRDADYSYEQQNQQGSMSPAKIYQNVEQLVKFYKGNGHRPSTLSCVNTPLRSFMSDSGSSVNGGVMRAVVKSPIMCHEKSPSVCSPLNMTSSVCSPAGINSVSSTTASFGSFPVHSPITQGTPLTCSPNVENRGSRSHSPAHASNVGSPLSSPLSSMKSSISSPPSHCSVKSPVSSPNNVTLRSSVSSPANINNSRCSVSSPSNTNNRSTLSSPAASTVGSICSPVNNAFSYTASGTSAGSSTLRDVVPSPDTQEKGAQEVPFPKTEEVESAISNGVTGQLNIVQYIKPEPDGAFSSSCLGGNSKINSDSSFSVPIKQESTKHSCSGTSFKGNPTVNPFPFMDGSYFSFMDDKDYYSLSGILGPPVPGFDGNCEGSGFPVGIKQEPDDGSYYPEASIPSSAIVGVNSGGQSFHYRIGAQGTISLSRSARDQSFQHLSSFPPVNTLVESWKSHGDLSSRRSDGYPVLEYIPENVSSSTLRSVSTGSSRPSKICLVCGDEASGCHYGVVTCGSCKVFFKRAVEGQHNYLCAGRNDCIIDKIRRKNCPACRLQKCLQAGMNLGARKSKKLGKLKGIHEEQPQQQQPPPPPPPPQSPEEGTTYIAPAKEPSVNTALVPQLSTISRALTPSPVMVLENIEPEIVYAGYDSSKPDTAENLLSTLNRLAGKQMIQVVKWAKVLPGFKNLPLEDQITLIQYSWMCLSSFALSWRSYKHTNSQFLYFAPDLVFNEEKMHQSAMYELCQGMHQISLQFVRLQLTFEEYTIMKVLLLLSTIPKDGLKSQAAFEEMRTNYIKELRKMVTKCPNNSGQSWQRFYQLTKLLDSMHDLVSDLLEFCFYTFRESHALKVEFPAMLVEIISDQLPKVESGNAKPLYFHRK
Experiment: Activation of human mineralocorticoid receptor transfected in HEK293T cells at 10 nM incubated for 16 hrs by luciferase based analysis
Type: cell-based
Conditions: filed as activator

Compound: C[C@]12CCC(=O)C=C1CC[C@@H]1[C@@H]2[C@@H](O)C[C@]2(C=O)[C@@H](C(=O)CO)CC[C@@H]12
- Activity: Active

Active and inactive are the calls of the source. The rule behind the calls is not given here.
